Source: article PMC11730311 (Scientific Reports, 2025)

By UniProt entry, the sequences of proteins in these tests, tags left out. Residues count along the entry.
UniProt O60894, 27-148: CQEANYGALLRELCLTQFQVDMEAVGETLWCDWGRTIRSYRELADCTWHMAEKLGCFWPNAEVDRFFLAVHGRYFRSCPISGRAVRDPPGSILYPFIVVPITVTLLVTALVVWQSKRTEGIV
UniProt Q16602, 23-461: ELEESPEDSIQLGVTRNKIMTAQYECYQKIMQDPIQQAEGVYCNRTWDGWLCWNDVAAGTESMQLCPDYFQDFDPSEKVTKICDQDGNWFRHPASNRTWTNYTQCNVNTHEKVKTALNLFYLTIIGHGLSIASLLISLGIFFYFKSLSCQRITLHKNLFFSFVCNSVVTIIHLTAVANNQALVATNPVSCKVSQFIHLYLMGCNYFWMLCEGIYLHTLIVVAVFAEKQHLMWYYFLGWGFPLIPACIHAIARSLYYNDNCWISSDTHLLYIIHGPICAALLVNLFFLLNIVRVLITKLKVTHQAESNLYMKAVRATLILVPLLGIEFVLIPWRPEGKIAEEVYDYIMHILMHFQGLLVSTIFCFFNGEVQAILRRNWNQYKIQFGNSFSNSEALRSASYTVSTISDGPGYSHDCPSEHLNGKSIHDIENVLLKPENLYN

Target: human calcitonin gene-related peptide receptor (hCGRP-R) (Homo sapiens, UniProt O60894+Q16602)
Assay: HTRF cAMP assay, agonist potency in the CHO-K1 hCGRP-R cell line
Type: cell-based

- EC50: 1.2 nM
SMILES: CC[C@H](C)[C@H](NC(=O)[C@H](C)NC(=O)CNC(=O)[C@H](Cc1ccccc1)NC(=O)[C@H](CC(N)=O)NC(=O)[C@H](CC(N)=O)NC(=O)[C@H](CO)NC(=O)[C@H](CO)NC(=O)[C@H](Cc1c[nH]cn1)NC(=O)[C@@H](NC(=O)[C@H](CC(C)C)NC(=O)[C@H](Cc1ccccc1)NC(=O)[C@H](CC(N)=O)NC(=O)[C@H](C)NC(=O)[C@H](CC(C)C)NC(=O)[C@H](CCCNC(=N)N)NC(=O)[C@H](CCC(N)=O)NC(=O)[C@@H](NC(=O)[C@H](C)NC(=O)[C@@H]1CSSC[C@H](NC(=O)[C@@H](N)CCCCN)C(=O)N[C@@H](CC(N)=O)C(=O)N[C@@H]([C@@H](C)O)C(=O)N[C@@H](C)C(=O)N[C@@H]([C@@H](C)O)C(=O)N1)[C@@H](C)O)C(C)C)C(=O)N[C@@H](CC(C)C)C(=O)N[C@@H](CO)C(=O)N[C@@H](CO)C(=O)N[C@H](C(=O)N[C@@H](CC(N)=O)C(=O)N[C@H](C(=O)NCC(=O)N[C@@H](CO)C(=O)N[C@@H](CC(N)=O)C(=O)N[C@H](C(=O)N[C@@H](Cc1ccc(O)cc1)C(N)=O)[C@@H](C)O)C(C)C)[C@@H](C)O [hAmylin]
